Earlier results in US9630841B2, “Method for producing an aqueous stable chlorine dioxide solution” (A.P.F. AQUA SYSTEM AG, priority 2010, dated 2017).

Settings: aqueous solution, 20° C.; cited from earlier work

In the case of sodium chlorite, the saturation concentration is listed as “about 64.5 wt %”.
